Literature values in article PMC6271944, “In Vitro Inhibitory Effects of Scutellarin on Six Human/Rat Cytochrome P450 Enzymes and P-glycoprotein” (Molecules, 2014).

Conditions: acute and subacute toxicity studies; cited from earlier work

With `O=C(O)[C@H]1O[C@@H](Oc2cc3oc(-c4ccc(O)cc4)cc(=O)c3c(O)c2O)[C@H](O)[C@@H](O)[C@@H]1O` [scutellarin, Scutellarin] as the compound, how does the “margin of safety for therapeutic use” value read?
Its value is “sufficient margin of safety”.
